According to the SangsterLogP compilation:

logP: 3.16
Compound: CC[C@H]1OC(=O)[C@H](C)[C@@H](O[C@H]2C[C@@](C)(OC)[C@@H](O)[C@H](C)O2)[C@H](C)[C@@H](O[C@@H]2O[C@H](C)C[C@H](N(C)C)[C@H]2O)[C@](C)(OC)C[C@@H](C)C(=O)[C@H](C)[C@@H](O)[C@]1(C)O
